We go through 2 substances from patent US10894885B2, “Crosslinkable composition and method for producing a coated article” (HWK KRONBICHLER GMBH, priority 2016, dated 2021).

Read-outs that look alike come from different tables or passages of the source.

The mark [1] stands for this setting: solvent 3M Novec 7500 + 4 wt % propane-2-ole.

With “3-(1H,1H,2H,2H Perfluorooctyl)-1-vinyl-1H-imidazoliumiodide”, the Solubility (in general, how much of the substance goes into solution per volume) is, setting by setting: (solvent 3M Novec 71 IPA) 8 mg/mL; under setting [1], 6 mg/mL.

On to “3-(1H,1H,2H,2H-perfluorooctyl)-1-vinyl-1H-imidazoliumiodide cocrystal having 1-iodoperfluorooctane”, for which the Solubility (solvent 3M Novec 71 IPA) was 500 mg/mL and the Solubility under setting [1] is 53 mg/mL.
